# Ab-14 light chain CDR variants: yeast mating affinities

Values reported by Engelhart et al. 2022, doi:10.1038/s41597-022-01779-4 (FLAb copy).

Target: peptide PDVDLGDISGINAS, taken from heptad repeat 2 (HR2) of SARS-CoV-2 spike.

Each scFv is VH, a 15-residue (Gly4Ser)3 linker, VL, as in the parent Ab-14, and differs from it in the CDRs of the light chain only.
VH: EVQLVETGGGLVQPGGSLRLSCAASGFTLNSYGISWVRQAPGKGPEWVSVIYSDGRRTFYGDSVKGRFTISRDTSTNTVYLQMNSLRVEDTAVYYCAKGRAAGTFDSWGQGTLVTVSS
VL: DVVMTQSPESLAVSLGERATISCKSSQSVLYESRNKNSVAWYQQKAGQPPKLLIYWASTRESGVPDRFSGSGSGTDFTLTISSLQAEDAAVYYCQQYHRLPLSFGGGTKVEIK

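Phage display of a naive human antibody library on the peptide gave the parent. The library (AAYL50) carries one to three amino acid substitutions per variant, with no insertions or deletions. In AlphaSeq, yeast of one mating type display the scFv and yeast of the other type display the target. The frequency of each diploid, read from paired DNA barcodes, reflects how well the two displayed proteins bind. Scores were corrected for input abundance and mapped to Kd with protein pairs of known affinity run in the same pool. The assay was run in three technical replicates.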

The parent's light chain CDRs are KSSQSVLYESRNKNSVA, WASTRES, QQYHRLPLS; each variant's own CDRs replace them letter for letter. Every variant below is changed at K24 of the VL (sequential numbering). Kd is apparent (estimated from mating counts) and averaged on the log scale over replicates with a signal. Smaller is tighter. Where no diploid with the target was found in any replicate, the entry reads "no signal": below detection, most likely a poor binder, though not proof of it. Background: pairings of library AAYL50 with three empty control strains gave a value in 18% of cases (median 15 µM, 5th percentile 970 nM). Values in that range, when seen in few replicates, are hard to tell from nonspecific mating.

Variant RSSQRVLYESRNKNSVA | WASTRES | FQYHRLPLS gave 15 µM (1 of 3 replicates). For YSSQSVLYESRNKNSNA | WASTRES | QQYHRLPLS, the assay gave no signal (0 of 3 replicates). Variant MSSQSVLYESRNRNSVA | WASTRES | QQYHRLPLC gave no signal (0 of 3 replicates). For VSSQSVLYESRNTDSVA | WASTRES | QQYHRLPLS, the assay gave 75 nM (3 of 3 replicates). With ESSQSVLYESRNTNSVA | WASTRES | QQYHRLPLS the result was 6.4 nM (3 of 3 replicates).

Variant YSSQSVLYESRNKNSVA | WARTREQ | QQYHRLPLS showed 310 nM (3 of 3 replicates). With DSSQSVLYYSRNKLSVA | WASTRES | QQYHRLPLS the result was 45 µM (3 of 3 replicates). For ASSQSVLYESRNKNEVA | WASTRCS | QQYHRLPLS, the assay gave 1.4 µM (3 of 3 replicates). Variant PSSQSVLYESRNQNSVA | WASTRES | QQYHRLPLS showed 5.9 µM (1 of 3 replicates). For IWPQSVLYESRNKNSVA | WASTRES | QQYHRLPLS, the assay gave no signal (0 of 3 replicates).

With RSSQSVLAESRDKNSVA | WASTRES | QQYHRLPLS the result was 21 nM (3 of 3 replicates). With VSSQSVLYESRNKNSVA | WASTRES | QQYHRLPHS the result was 18 µM (2 of 3 replicates). For QSSQSVLYESRNDNSVA | WASTRES | QQYHRHPLS, the assay gave 64 nM (3 of 3 replicates). Variant FSSQSVLYFSRNKNSVA | TASTRES | QQYHRLPLS showed 120 nM (1 of 3 replicates). Variant ESSQSVLYESRKKNSVA | WASTRES | QQYHRLPLS gave 180 nM (3 of 3 replicates).

Variant ISSQSVLYESRNKNSVA | WASLRES | QWYHRLPLS showed 600 µM (2 of 3 replicates). For ESSCSVLYESRNKNSVA | WASTRES | QQYHRLPLS, the assay gave 170 nM (3 of 3 replicates). Variant ESSQSVLYHSRNKNSVA | WASTRES | QQYHRLPAS gave no signal (0 of 3 replicates). With WSSQSVLYESRNKNSVA | WASTSES | QQYHRIPLS the result was no signal (0 of 3 replicates). With FHSQSVLYESTNKNSVA | WASTRES | QQYHRLPLS the result was 95 nM (2 of 3 replicates).

With VSSQSVLYESRNKNSVA | WASTKGS | QQYHRLPLS the result was 1.1 µM (3 of 3 replicates). Variant PSSQSVLYESRNKNMVA | WASTRES | QQYHRIPLS showed no signal (0 of 3 replicates). For DSSQSVLYESRNKNSVA | WASTRES | QDYHRLRLS, the assay gave 230 nM (3 of 3 replicates). Variant MSSQSVLYESRGKNSVA | WASTRES | QQYHRLPQS gave no signal (0 of 3 replicates). Variant VSSQSVLYESRNKNSVA | WASFYES | QQYHRLPLS showed no signal (0 of 3 replicates).

Variant ESSQSVLYESVNKNSVA | CASTRES | QQYHRLPLS gave 240 nM (3 of 3 replicates). For CSSQSVLYESRNKNSVR | WASTRES | QQYCRLPLS, the assay gave no signal (0 of 3 replicates).